# Measured affinities in a library of Ab-14 light chain variants

The measurements come from Li et al. 2023 (doi:10.1038/s41467-023-39022-2) through the FLAb antibody collection.

Target peptide (SARS-CoV-2 spike, HR2 region): PDVDLGDISGINAS

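The starting antibody came from a phage panning campaign against this peptide. This is the validation round: designs drawn from the data on random variants, tested in the same kind of assay. Their group label is 14L_En_HC (En: ensemble of fine-tuned language models; HC: hill climbing; a sequence that several methods proposed may carry one label only). AlphaSeq pools MATa yeast showing the antibodies with MATalpha yeast showing the peptide. After mating in shaken culture at 30 °C for 16 h, diploids were selected and their barcode pairs sequenced. Each replicate has its own calibration line, from reference interactions of the BCL2 family. The assay was run in six technical replicates.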

The variants keep the heavy chain, the linker and the frameworks of Ab-14 (scFv order VH, a (GGGGS)3 linker, VL).
VH: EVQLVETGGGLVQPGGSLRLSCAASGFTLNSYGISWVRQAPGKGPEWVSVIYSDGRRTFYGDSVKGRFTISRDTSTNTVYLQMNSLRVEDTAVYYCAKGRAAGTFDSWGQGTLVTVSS
VL: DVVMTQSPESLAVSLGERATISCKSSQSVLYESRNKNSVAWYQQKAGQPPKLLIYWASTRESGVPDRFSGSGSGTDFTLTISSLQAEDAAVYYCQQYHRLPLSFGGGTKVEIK

The parent's light chain CDRs are KSSQSVLYESRNKNSVA, WASTRES, QQYHRLPLS; each variant's own CDRs replace them letter for letter.
Numbers give log10(Kd / nM), so 0 is 1 nM and 3 is 1 µM. Smaller is tighter.
A pair that was not seen in that replicate is written "ND"; this usually means weak binding, but a binder can also be missed.
The authors' rule: three or more of the six replicates give a measured affinity, fewer mean a poor binder.

CDR-L1	CDR-L2	CDR-L3	log10 Kd (nM) by replicate	signal with controls
IISQSFLGAYHNKNSVA	QTSERGS	QQYDRLPLS	-0.13 -0.31 -0.24 -0.37 -0.38 -0.04	1/18 (2.41)
KISMLYNFAQTNKNSIA	EMTTRED	QHYHRLPLS	1.09 1.31 0.88 0.53 1.01 0.73	0/18
KLGGVTEYEMMNKNSVA	QMTTRES	QQYHRLPLS	0.43 0.14 0.21 -0.03 0.01 0.40	2/18 (2.71)
MLSDLVKMGSRNTNSVA	DNSTRGG	QQYDRLPLS	0.98 1.16 0.40 0.73 1.44 0.73	1/18 (2.69)
KIGGVTNGISRSKNSVA	EQSTRED	QQYDRLPLL	1.05 0.88 0.65 1.08 0.84 0.85	0/18
SLADAVHMESRNKNSVA	DNSTRES	QHYHRLPLS	1.49 1.08 2.04 2.92 1.52 2.25	0/18
KLSQFYRMESRNKNSVA	DNSTREY	QDYDRLPLS	ND ND ND ND ND ND	1/18 (2.40)
KLRQVTGYESYMRNSVA	QMSTRAE	QDYHRLPLS	0.79 0.39 1.12 0.76 0.65 1.34	1/18 (2.70)
TLTQVQGMESHNKDNVA	DLSTRGS	QQYNRLPLS	-0.08 -0.20 -0.43 -0.53 -0.09 -0.10	1/18 (3.00)
ILSQSVLMGSHLKNSVA	QASTRFS	QQYHRLPLM	0.94 1.03 1.03 0.91 0.87 1.08	1/18 (2.29)
MISDMGLHDSRIQNSVA	NNSTREA	QQYERLPLS	1.73 1.53 1.85 1.53 2.33 2.63	1/18 (2.32)
SLMQVGGYEMNNHNSIA	DLRTRES	QQYHRLPLS	0.51 1.18 0.50 1.22 0.79 0.24	0/18
HISQMVMMGSCNKNNVA	QVSTREE	QQYHRLPLS	0.89 0.94 0.74 0.91 0.92 1.00	3/18 (2.41)
KLRQVTGYESYMKNSVA	QTSTRVS	QDYHRLPLS	0.98 0.67 0.37 0.57 0.27 0.59	0/18
IISQSMLYETATHNSIA	QTSTREE	QQYHHLPLI	1.31 0.55 2.33 0.77 2.19 0.92	0/18
TISNMFMMENQFKNSVA	QASTRES	QCYDRLPLS	1.79 1.61 ND 1.87 2.00 2.97	3/18 (2.43)
IISHVDAYESRNKNSIA	DQSTRGS	QQYDRLPLS	0.43 0.33 0.25 0.22 0.27 0.56	1/18 (2.85)
MISDLTMYGSRNRNSVA	DLSTRGS	QQYHRLPLS	0.10 -0.05 -0.02 -0.05 0.14 0.10	2/18 (2.29)
MISDLTMYGSRNKNSVA	DLSTRGS	QQYYRLPLS	-0.01 -0.15 -0.32 -0.09 0.18 0.33	0/18
HFSQVTMYGQWNKNSVA	QTSTREE	QQYDRLPLS	1.55 2.00 ND 1.47 2.72 1.88	1/18 (1.74)
HLGGLMTWESKAKNSVA	QQNTRAE	QQYHRLPLS	0.51 0.74 0.98 0.50 0.79 0.39	0/18
TVSQVHEMLSHNKNSVA	DMNTREK	QQYDRLPLS	0.64 1.24 1.27 0.58 1.43 0.87	1/18 (1.26)
TLSQLMDMTSKNVNSVA	DLTTRGN	QQYHRLPLS	0.34 0.36 0.35 0.02 0.20 0.48	2/18 (1.86)
KISYMGEYFSTNHSAIA	QASTREQ	QQYHRLPLA	0.47 0.01 0.22 0.19 0.19 0.33	0/18
MLGDTVMEGMYSRNSVA	QEETRAE	QQYHHLPLS	0.77 1.06 0.64 0.65 0.55 0.90	0/18
KLSISYLFESQEKNSIA	ENSTREN	QHYHRLPLS	1.99 ND ND ND ND ND	1/18 (2.21)
HLGGTMTWESKAKNSVA	QSVTRAE	QQYHRLPLS	0.57 0.40 0.50 0.22 0.35 0.36	0/18
KIGMVTNGISRSKNSVA	EQSTRED	QQYNRLPLS	-0.01 0.01 -0.15 -0.34 -0.35 0.13	0/18
KLGQMTATESRNLNSVA	QMDTRES	QQYHRLPLS	1.23 ND 2.35 1.57 1.92 2.37	1/18 (1.62)
KISMMTTFESRNKNSVA	ENSTRES	QSYHRLPLS	ND ND ND 2.34 ND ND	0/18
KLRQSTHIESFNKNNVA	EMTTREA	QSYDRLPLS	1.08 0.95 0.68 0.96 0.87 1.03	1/18 (2.74)
TISQSAQMESHNKNSVA	DLNMRGS	QQYDRLPLS	0.27 0.58 0.05 0.51 0.05 0.57	3/18 (3.36)
KISYMGEHFSTNHSAIA	QASEREQ	QQYHRLPIS	1.14 0.78 0.90 0.83 0.80 0.71	1/18 (2.95)
TISQTAQQESHNKNSVA	DLSVRGS	QQYDRLPLS	-0.39 -0.05 -0.18 0.47 0.60 0.43	0/18
KLYMSTGYESRNSDSIA	DNSTRGR	QQYHRLPLS	1.42 0.80 0.84 0.42 1.02 0.56	1/18 (2.43)
KLSEYVGGESRNKSSLA	DNSTRES	QQYHRLPLS	1.43 1.19 1.20 1.32 1.34 1.47	2/18 (3.18)
NLYQSMNFLGRVMNSIA	DANTLPD	QQYHRLPLS	1.05 2.13 1.29 1.53 1.20 1.84	0/18
NFSQMVLTGQTLRNSVA	HASTRFN	QQYHRLPLI	1.22 1.95 1.38 1.10 1.51 1.50	0/18
TLSHSTDLEMVHKNSIA	DLMTRES	QQYDRLPLS	0.15 0.51 0.14 0.37 0.21 0.51	0/18
TISQSANQESHNKNSVA	DLNVRGS	QQYDRLPLS	0.35 0.60 0.58 0.57 0.45 0.68	2/18 (2.96)
QLYAVQDMTSKNKNSVA	EQSTRVN	QQYHRLPLS	ND ND ND ND ND ND	0/18
KLGNMTGIESHNKNSLA	DANRRES	QQYHRLPLS	0.77 0.37 0.14 0.14 0.45 0.53	0/18
NISESMYYQSRIKNNIA	EMSTRER	QHYHRLPLS	1.14 0.89 0.64 1.00 0.91 1.34	1/18 (1.70)
KILQEIENQSYNRNSVA	HSTTRED	QSYHRLPLS	1.18 0.73 0.85 0.96 0.57 1.02	0/18
TISTSMRYESSLKNAIA	NAQTRES	QQYHRLPLA	0.29 0.39 0.24 0.33 0.23 0.41	1/18 (3.76)
MFSQGVMVGWLTRNSVA	NSSTREQ	QQYHRLPLS	2.55 2.58 1.78 3.44 1.50 2.00	0/18
KLYQSVGTMSHNKQSIA	DMERRED	QQYNRLPLS	-0.17 -0.28 -0.33 -0.50 -0.29 -0.23	1/18 (2.60)
KLRQVTGYEMLNKNSVA	QTSTRVN	QDYHRLPLS	0.89 0.21 1.37 0.69 0.90 1.03	1/18 (1.21)

Picked from the list: the 6 lowest averages where every replicate gave a value.

{"CDR-L1": "KLYQSVGTMSHNKQSIA", "CDR-L2": "DMERRED", "CDR-L3": "QQYNRLPLS", "log10 Kd (nM) by replicate": "-0.17 -0.28 -0.33 -0.50 -0.29 -0.23", "signal with controls": "1/18 (2.60)"}
{"CDR-L1": "IISQSFLGAYHNKNSVA", "CDR-L2": "QTSERGS", "CDR-L3": "QQYDRLPLS", "log10 Kd (nM) by replicate": "-0.13 -0.31 -0.24 -0.37 -0.38 -0.04", "signal with controls": "1/18 (2.41)"}
{"CDR-L1": "TLTQVQGMESHNKDNVA", "CDR-L2": "DLSTRGS", "CDR-L3": "QQYNRLPLS", "log10 Kd (nM) by replicate": "-0.08 -0.20 -0.43 -0.53 -0.09 -0.10", "signal with controls": "1/18 (3.00)"}
{"CDR-L1": "KIGMVTNGISRSKNSVA", "CDR-L2": "EQSTRED", "CDR-L3": "QQYNRLPLS", "log10 Kd (nM) by replicate": "-0.01 0.01 -0.15 -0.34 -0.35 0.13", "signal with controls": "0/18"}
{"CDR-L1": "MISDLTMYGSRNKNSVA", "CDR-L2": "DLSTRGS", "CDR-L3": "QQYYRLPLS", "log10 Kd (nM) by replicate": "-0.01 -0.15 -0.32 -0.09 0.18 0.33", "signal with controls": "0/18"}
{"CDR-L1": "MISDLTMYGSRNRNSVA", "CDR-L2": "DLSTRGS", "CDR-L3": "QQYHRLPLS", "log10 Kd (nM) by replicate": "0.10 -0.05 -0.02 -0.05 0.14 0.10", "signal with controls": "2/18 (2.29)"}

Three control strains display no target. For all light chain designs, 4% of the pairings with them gave a signal, with a median of 2.64 and one signal in twenty below 1.59, so weak values seen in few replicates may be background. The control count says in how many pairings with the empty strains this scFv gave a signal, with their mean in brackets.
A sequence measured in both rounds can read differently, since the two assays cover different ranges.
The parent sequence was in this pool as ten entries: three were never detected, three once, and four in most replicates, with averages from 0.34 to 2.37.